Experimental data as given in patent publication US20040138241A1, “Novel use of arylethenesulfonamide derivative” (priority 2001, published 2004).

What was measured:
[1] = system: patients with prostatic cancer accompanied with urinary dysfunction; conditions: human, in vivo, po
[2] = system: isolated rabbit bladder base preparations
[3] = system: urethral pressure in anesthetized dogs; assay: ET-1 induced increase of urethral pressure in the presence of α1 receptor blocker in anesthetized dog; conditions: in vivo, iv
Protocol: A urethral pressure profile (UPP) was recorded according to the same operation method as in Test Example 3 .
Thirty minutes thereafter, the same amount of tamsulosin hydrochloride (10 μg/kg i.v.) was again intravenously administered.

[4] = system: urethral pressure in anesthetized dogs; conditions: dog, in vivo, 1 mg/kg
Description: Male beagle dogs (body weight: from 8 to 13 kg) were subjected to artificial ventilation under the anesthesia with pentobarbital, a catheter was inserted into a left femoral artery for measurement of blood pressure and heart rate and a left femoral vein for administration of drug. A catheter for measurement of urethral pressure (from 8 to 10Fr, 2 holes, manufactured by Create Medic Co., Ltd.) was inserted from an external urethral meatus toward urinary bladder. An automatic syringe pump was connected with one end of the catheter, and a pressure transducer was connected with the other end thereof. […] At the same time, by drawing out the catheter from the urinary bladder into the external urethral meatus at a rate of 25 mm/min by an automatic drawing unit, the pressure was measured and recorded throughout urethra as a urethral pressure profile (UPP) as shown in FIG. 6.
In the blood pressure-response by ET-1 since the pressure increased after a transient reduction of pressure, measurement of the urethral pressure was started about 3 minutes after the administration. On the other hand, as phenylephrine hydrochloride caused an increase of pressure immediately after the administration, measurement of the urethral pressure was started immediately after the administration. […]

[5] = system: prostatic urethral pressure in anesthetized dogs; conditions: dog, in vivo, iv
Protocol: After waiting for stabilization of hemodynamics following the operation, the balloon was fixed to the prostatic urethra and expanded, and a prostatic urethral pressure (PUP) was measured from a change in pressure within the balloon.
ET-1 (from 0.006 to 0.8 μg/kg i.a., molar concentration: from 0.0025 to 0.321 nmol/kg i.a.) and phenylephrine hydrochloride (from 0.06 to 8 μg/kg i.a.; molar concentration: from 0.307 to 39.3 nmol/kg i.a.) were locally administered, thereby comparing the dose-response curve of an increasing action of PUP by the drugs.
In the experiments, dogs in which a degree of increase of PUP was observed 40 cmH2O or more in the pre-contraction with phenylephrine hydrochloride (8 μg/kg i.a.) were used.

[6] = system: isolated rabbit prostate preparations
[7] = system: isolated rabbit urethra preparations

## COc1ccccc1Oc1c(NS(=O)(=O)C=Cc2ccccc2)nc(-c2ncccn2)nc1OC [Compound 1, N-[6-methoxy-5-(2-methoxyphenoxy)-2-(pyrimidin-2-yl)-pyrimidin-4-yl]-2-phenylethenesulfonamide]
[1]
  Change of I-PSS: Deteriorated, number of cases/total number of cases: 0/10
  Change of I-PSS: Deteriorated, response rate: 0%
  Change of I-PSS: Improved, number of cases/total number of cases: 8/10
  Change of I-PSS: Improved, response rate: 80%
  Change of I-PSS: Not changed, number of cases/total number of cases: 2/10
  Change of I-PSS: Not changed, response rate: 20%
  reduction rate of I-PSS: 31.7 ±7.9%
[2]
  pA2 value against ET-1 induced contraction: 6.6
  slope (Schild): 1.32
[3]
  inhibition of increasing action of UPP by ET-1 in the presence of tamsulosin hydrochloride: completely inhibited
[4]
  inhibition of increasing action of UPP due to intravenous ET-1: completely inhibited
[5]
  IC50 value of inhibition of increase of PUP by ET-1: 0.13 ± 0.07 mg/kg
[6]
  pA2 value against ET-1 induced contraction: 6.5
  slope (Schild): 1.54
[7]
  pA2 value against ET-1 induced contraction: 6.7
  slope (Schild): 0.82
